For 55 molecules, inhibition results are on record in PubChem BioAssay AID588674 (Broad Institute, 2011).

Structures are written as SMILES. Only a part is listed here, and it is no random draw. Some salts or complexes appear as unconnected parts, following the source record. Calls of active or inactive are those of the source.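 Rule for the calls: active = mean inhibition of at least 75% with every replicate also reaching 75%; inconclusive = mean inhibition at least 75% but some replicate below; inactive = mean inhibition below 75%.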

The nature of the experiment: Shn3 3'UTR reporter decrease in osteoblasts – cell-based, Clone20 osteoblasts, firefly luciferase, set 2, Schnurri-3 inhibitor project, primary screen (AID 588674).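 Note: 0% = median of neutral control wells and 100% = pilot-screen positive control compound.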 The settings on record: Clone20 osteoblast Shn3 3'UTR firefly luciferase, 24 h; at 12.5 µM; active compounds read high.
Regarding `O=C(OCCCN1CCCC1)C(O)(c1ccccc1)C1CCCCC1` (stereo not given), the inhibition is inactive: -2.96%.
As for `COc1ccccc1OP(C)(=O)Nc1c(C)n(C)n(-c2ccccc2)c1=O` (stereo not given), the inhibition is inactive: -32.1%.
Take `CCc1ccc(OP(C)(=O)Nc2cccnc2)cc1` (stereo not given): the inhibition was inactive: -5.25%.
For `CP(=O)(Oc1ccccc1)N1CCOC1=O` (stereo not given) the value was inactive: -21.1%; for `COc1ccc(OP(C)(=O)Nc2ccc(Br)cc2)cc1` (stereo not given), inactive: -2.91%.
As to `CCN(CC)CC(O)COC(=O)C(O)(c1ccccc1)C1CCCCC1` (stereo not given), the inhibition was inactive: -7.91%.
Take `CN(C)C(=O)c1c([N+](=O)[O-])cc([N+](=O)[O-])cc1[N+](=O)[O-]`: the inhibition is inactive: 17.7%.
Under `COc1ccccc1OP(C)(=O)Nc1ccccc1Br` (stereo not given) stands inactive: -10.8%; under `CC(C)(C)c1ccc(OP(C)(=O)O)cc1`, inactive: 0.114%.
`CP(=O)(Nc1ccc(Cl)cc1)Oc1ccc(F)cc1` (stereo not given): the inhibition is inactive: -4.2%.
Regarding `CCOC(=O)c1ccc(NP(C)(=O)Oc2ccc(Cl)cc2)cc1` (stereo not given), the inhibition was inactive: 4.34%.
For `CP(=O)(OC12CC3CC(CC(C3)C1)C2)OC12CC3CC(CC(C3)C1)C2` the value was inactive: 0.478%; for `COc1ccccc1OP(C)(=O)Nc1ccc(C)c(C)c1` (stereo not given), inactive: -16.5%.
Consider `COc1ccc(OP(C)(=O)Nc2ccccc2Br)cc1` (stereo not given), for which the inhibition was inactive: -5.47%.
Under `Cc1cc(C)cc(OP(C)(=O)Nc2cccc(C(F)(F)F)c2)c1` (stereo not given) stands inactive: 24.5%; under `O=C1C(O)=C([N+](=O)[O-])C(=O)C(O)=C1[N+](=O)[O-]`, inactive: 17.1%; under `CCCCCCCCCCCCCCCC1C[N+](C)(C)CCOP(C)(=O)O1` (stereo not given), inactive: -4.62%.
`CP(=O)(Nc1ccc(Cl)cc1Cl)Oc1ccccc1` (stereo not given): the inhibition is inactive: -4.81%.
Under `CP(=O)(OCCOc1ccccc1)OCCOc1ccccc1` stands inactive: -0.212%; under `COc1ccc(OP(C)(=O)Nc2ccccn2)cc1` (stereo not given), inactive: 2.64%; under `CN(C)CCOC(=O)C(O)(c1ccccc1)C1CCCC1` (stereo not given), inactive: 4.59%.
In the case of `COc1ccccc1OP(C)(=O)Nc1ccc(Br)cc1` (stereo not given), the inhibition was inactive: -21.3%.
For `COc1ccccc1OP(C)(=O)Nc1ccc(C)cc1C` (stereo not given) the value was inactive: -6.53%; for `CP(=O)(Nc1ccccn1)Oc1ccccc1` (stereo not given), inactive: -11.5%; for `CCc1ccc(OP(C)(=O)O)cc1`, inactive: 1.62%.
For `Cc1c(NP(C)(=O)Oc2ccc(C(C)C)cc2)c(=O)n(-c2ccccc2)n1C` (stereo not given), the inhibition is active: 97.2%.
Regarding `O=[N+]([O-])c1cc([N+](=O)[O-])c(Nc2ccccn2)c([N+](=O)[O-])c1`, the inhibition is inactive: 51.6%.
`CP(=O)(Nc1ccccc1F)Oc1ccccc1` (stereo not given): the inhibition was inactive: 3.42%.
For `CC(C)c1ccc(OP(C)(=O)Nc2ccc(SC(F)(F)F)cc2)cc1` (stereo not given) the value was inactive: 16.3%; for `O=[N+]([O-])c1cc([N+](=O)[O-])c(Nc2ccc(Cl)cc2)c([N+](=O)[O-])c1`, inactive: 75.7%; for `COc1ccc2c(c1O)-c1c(O)c(OC)cc3c1[C@H](C2)[N+](C)(C)CC3.O=[N+]([O-])c1cc([N+](=O)[O-])c([O-])c([N+](=O)[O-])c1[O-]`, inactive: 6.48%.
Under `O=C(OC1CN2CCC1CC2)c1ccc([N+](=O)[O-])cc1` (stereo not given) stands inactive: 10.8%; under `O=C(OCCN1CCN(CCOCc2ccccc2)CC1)C(O)(c1ccccc1)c1ccccc1`, inactive: 19.8%; under `CCOC(=O)c1ccc(NP(C)(=O)Oc2ccc(F)cc2)cc1` (stereo not given), inactive: -22.7%.
Under `COc1ccc(OP(C)(=O)Nc2ccc(SC(F)(F)F)cc2)cc1` (stereo not given) stands inactive: -3.92%; under `CP(=O)(Nc1ccccc1)Oc1ccc(F)cc1` (stereo not given), inactive: 0.786%.
As for `O=[N+]([O-])c1cc([N+](=O)[O-])c(OC2CCCCC2O)c([N+](=O)[O-])c1` (stereo not given), the inhibition is inactive: -8.37%.
For the molecule `Cc1c([N+](=O)[O-])cc([N+](=O)[O-])c(Br)c1[N+](=O)[O-]`, the inhibition was inactive: 0.737%.
On to `CCN(CC)CCCOC(=O)C(O)(c1ccccc1)C1CCCCC1` (stereo not given), for which the inhibition was inactive: -4.9%.
In the case of `CN(C)CCOC(=O)C(O)(c1ccccc1)C1CCCCC1` (stereo not given), the inhibition is inactive: 15.8%.
Under `COc1ccc(NP(C)(=O)Oc2ccccc2OC)cc1` (stereo not given) stands inactive: 17.4%.
With `COc1ccc(OP(C)(=O)Nc2cccc(Br)c2)cc1` (stereo not given), the inhibition is inactive: -35.1%.
With `Cc1c(C(c2ccc3c(c2)OCO3)c2c(C)n(C)n(-c3ccccc3)c2=O)c(=O)n(-c2ccccc2)n1C.O=[N+]([O-])c1cc([N+](=O)[O-])c(O)c([N+](=O)[O-])c1`, the inhibition was inactive: -4.97%.
For `O=[N+]([O-])c1ccc(OP2(=O)COCCO2)cc1` (stereo not given) the value was inactive: 0.396%; for `O=[N+]([O-])c1cc([N+](=O)[O-])c(NCC2CCS(=O)(=O)C2)c([N+](=O)[O-])c1` (stereo not given), inactive: 8.04%.
For `Cc1cc(-c2cccc3ccccc23)c(C)cn1.O=[N+]([O-])c1cc([N+](=O)[O-])c(O)c([N+](=O)[O-])c1` the value was inactive: 5.36%; for `CCOP(C)(=S)SCC(=O)NC(C)(CC)C(=O)O` (stereo not given), inactive: -4.38%.
For `CP(=O)(Nc1ccc(SC(F)(F)F)cc1)Oc1ccc(F)cc1` (stereo not given) the value was inactive: 6.23%; for `Cc1ccccc1NP(C)(=O)Nc1ccccc1C`, inactive: 2.08%.
With `CN(Cc1cccnc1)C(=O)COc1ccc(Cl)c(Cl)c1.O=[N+]([O-])c1cc([N+](=O)[O-])c(O)c([N+](=O)[O-])c1`, the inhibition is inactive: 0.443%.
With `O=[N+]([O-])c1cc([N+](=O)[O-])c(-n2nnc3ccccc32)c([N+](=O)[O-])c1`, the inhibition was inactive: -10.7%.
Under `Cc1nc2ccc3ccccc3c2s1.O=[N+]([O-])c1cc([N+](=O)[O-])c(O)c([N+](=O)[O-])c1` stands inactive: 1.99%; under `O=[N+]([O-])c1cc([N+](=O)[O-])c(-c2cnn(-c3ccccc3)c2)c([N+](=O)[O-])c1`, inactive: 9.31%.
Under `CCOC(=O)C(CC)C1=NC(C)(C)Cc2ccccc21.O=[N+]([O-])c1cc([N+](=O)[O-])c(O)c([N+](=O)[O-])c1` (stereo not given) stands inactive: 11.1%.
In the case of `CC1=C2N=C(C=C3N=C(C(C)=C4[N-][C@@](C)([C@@H]5N=C1[C@](C)(CCC(=O)NC[C@@H](C)OP(=O)([O-])O[C@H]1[C@@H](O)[C@@H](n6cnc7cc(C)c(C)cc76)O[C@@H]1CO)[C@H]5CC(N)=O)[C@@](C)(CC(N)=O)[C@@H]4CCC(N)=O)[C@@](C)(CC(N)=O)[C@@H]3CCC(N)=O)C(C)(C)[C@@H]2CCC(N)=O.[C-]#N.[Co+3]`, the inhibition was inactive: 0.0035%.

Broadly, the inhibition is the change of the read-out against control, counted positive when it falls.
